For test [1], the system named is Normal human fibroblasts. To be noted: heparin nonsupplemented and heparin supplemented conditions; compared with DMSO-added control; FIG. 1.
Test [2] concerns Normal human fibroblasts. Put plainly: Toxicity of farrerol on fibroblasts, MTT assay (WST-8). In kind it is cell-based. The conditions noted are these: farrerol 10^−6, 5×10^−7 and 10^−7 ml/ml-DMEM. As to the method:
The toxicity of farrerol was examined by the MTT assay and the dose of farrerol added to the heparin supplemented system was then obtained. 1. Fibroblasts grown to 80% confluency were dispersed with 0.05% Trypsin/EDTA. The dispersant was seeded on 96 wells/plate at a concentration of 3×10^3 cells/well. 2. After 24 hours, farrerol with adjusted concentration was added to the respective wells in a volume of […]/well (n=8). 3. WST-8/1-Methyl PMS was added to the respective wells in a volume of […]/well after 24 hours, 48 hours, and 72 hours from the addition of farrerol and then incubated at 37° C. for 4 hours. 4. Absorbance was measured at a measurement wavelength of 450 nm and a reference wavelength of 650 nm.

For test [3], the system named is Normal human epidermal keratinocytes. Description: Cell proliferation effect of farrerol on keratinocytes (direct evaluation, cell count). In kind it is cell-based. Here is the method:
3) After 24 hours, 48 hours, and 72 hours from the sample addition, the cells were dispersed with 0.05% Trypsin/EDTA and the number thereof was then counted by a blood cell counter. By the way, in Experiment 1, the evaluation for WST-8 was used as an indicator of the number of cells. Since such a method is provided for indirect evaluation of the number of cells by acting on […] in mitochondria, the present study directly count the number of cells.

Test [4] has the same test system.

Consider `Cc1c(O)c(C)c2c(c1O)C(=O)CC(c1ccc(O)cc1)O2` (stereo not shown) [farrerol], for which the “cell proliferation (number of cells vs incubation days)” value with Normal human fibroblasts [1] is listed as “tended to promote cell proliferation”. Moreover, in the test with Normal human fibroblasts [2], the cell proliferation result was “cell proliferation was promoted”. For the same compound, the cell proliferation rate was 75.1±5.2% in test [3] (10^−5 M farrerol, after 24 hours, control (DMSO-added group) = 100%); “about 71.9±16.6%” in test [3] (10^−5 M farrerol, after 48 hours, control = 100%); 75.5±5.8% in test [3] (10^−6 M farrerol, after 24 hours, control = 100%); 77.1±8.6% in test [3] (10^−7 M farrerol, after 24 hours, control = 100%); “almost the same proliferation rate as that of the control group” in test [3] (concentrations lower than 10^−5 M, after 48 hours). Moreover, the “OD value relative to control DMSO” value in test [4] (3×10^3 cells/well, 24 hours, 10^−5 M farrerol) was “two or more times higher than that of the control”. In test [4] (3×10^3 cells/well, 48 hours, 10^−5 M farrerol), the “OD value relative to DMSO” value is given as 1.7 times. Also, the “visual evaluation of cell proliferation” value in test [4] (farrerol-added group compared with DMSO) is “did not give the impression that the cell proliferation of the farrerol-added group was promoted”.
